pIC50: −log10 of the molar value.
Experiment: Reversal of P-gp-mediated multidrug resistance in human KB/VCR cells assessed as potentiation of vincristine-induced antiproliferative activity by measuring vincristine IC50 at 2 uM measured after 72 hrs by CCK8 assay (Rvb = 0.51 uM)

CC(=O)O[C@H]1C[C@@H](C)[C@]23OC(C)(C)[C@H](C[C@H](OC(=O)c4ccccc4)[C@@]2(C)[C@@H]1OC(C)=O)[C@H]3OC(=O)c1ccccc1
pIC50: 7.15
